Test results: EP4640678A1, “NOVEL OXO-PYRIDINE COMPOUND, PREPARATION METHOD THEREFOR, AND USE THEREOF” (Chengdu Shibeikang Biomedical Technology Co., Ltd., priority 2022, dated 2024)

System: human plasma
Assay: determination of in-vitro anticoagulant effect in human plasma (APTT)
Type: biochemical
Settings: for APTT prolongation rate (%): healthy human plasma, 37°C for 3 min

SMILES | APTT prolongation rate (%) (1 µM) | APTT prolongation rate (%) (3 µM) | APTT prolongation rate (%) (10 µM) | EC150 (estimated from the APTT test results in human plasma)
CC[C@@H](C(=O)Nc1ccc(C(N)=O)c(F)c1)n1cc(OC)c(-c2cc(Cl)ccc2-n2cc(C(F)(F)F)nn2)cc1=O [Comparative example 1, (S)-4-(2-(4-(5-chloro-2-(4-(trifluoromethyl)-1H-1,2,3-triazol-1-yl)phenyl)-5-methoxy-2-oxopyridin-1(2H)-yl)butanamido)-2-fluorobenzamide, reference compound] | 40.1% | 69.8% | 130.1% | 
[2H]C([2H])([2H])Oc1cn([C@@H](CC)C(=O)Nc2ccc(C(N)=O)c(F)c2)c(=O)cc1-c1cc(Cl)ccc1-n1cc(C(F)(F)F)nn1 [Compound 21, (S)-4-(2-(4-(5-chloro-2-(4-(trifluoromethyl)-1H-1,2,3-triazol-1-yl)phenyl)-5-(methoxy-d3)-2-oxopyridin-1(2H)-yl)butanamido)-2-fluorobenzamide] |  | 76.8% | 147.6% | less than 1 µM
[2H]C([2H])([2H])C([2H])([2H])[C@@H](C(=O)Nc1ccc(C(N)=O)c(F)c1)n1cc(OC)c(-c2cc(Cl)ccc2-n2cc(C(F)(F)F)nn2)cc1=O [Compound 28, (S)-4-(2-(4-(5-chloro-2-(4-(trifluoromethyl)-1H-1,2,3-triazol-1-yl)phenyl)-5-(methoxy)-2-oxopyridin-1(2H)-yl)butanamido-3,3,4,4,4-d5)-2-fluorobenzamide] | 35.8% | 63.3% | 102.9% | 
[2H]c1c([2H])c(-n2cc(C(F)(F)F)nn2)c(-c2cc(=O)n([C@@H](CC)C(=O)Nc3ccc(C(N)=O)c(F)c3)cc2OC)c([2H])c1Cl [Compound 29, (S)-4-(2-(4-(5-chloro-2-(4-(trifluoromethyl)-1H-1,2,3-triazol-1-yl)phenyl-3,4,6-d3)-5-(methoxy)-2-oxopyridin-1(2H)-yl)butanamido)-2-fluorobenzamide] | 38.9% | 73.1% | 105.5% | 
